From PMC11443494, “Dynamical responses predict a distal site that modulates activity in an antibiotic resistance enzyme” (Chemical Science, 2024) come the findings set out here.

The chains behind the UniProt entries cited, without tags or fusion partners. Residues count along the entry.
UniProt Q9F663, 25-293 limits assumed: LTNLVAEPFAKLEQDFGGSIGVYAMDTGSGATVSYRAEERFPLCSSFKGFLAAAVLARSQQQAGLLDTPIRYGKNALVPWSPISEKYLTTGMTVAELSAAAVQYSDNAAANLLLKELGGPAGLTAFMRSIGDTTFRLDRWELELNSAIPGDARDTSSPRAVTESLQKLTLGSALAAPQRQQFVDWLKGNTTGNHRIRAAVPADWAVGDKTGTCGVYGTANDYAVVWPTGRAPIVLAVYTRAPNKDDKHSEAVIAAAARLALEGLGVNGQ
UniProt Q9F663, 25-293 G88D: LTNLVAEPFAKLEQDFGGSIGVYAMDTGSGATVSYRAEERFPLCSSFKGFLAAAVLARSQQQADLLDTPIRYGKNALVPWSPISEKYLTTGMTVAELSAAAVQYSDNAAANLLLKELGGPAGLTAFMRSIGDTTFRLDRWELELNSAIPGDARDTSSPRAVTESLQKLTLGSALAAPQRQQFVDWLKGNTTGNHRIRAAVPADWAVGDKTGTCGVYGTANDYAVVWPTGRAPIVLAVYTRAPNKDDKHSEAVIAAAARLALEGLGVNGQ

Molecules are shown by their SMILES. Read-outs that look alike come from different tables or passages of the source.

One test has as its target T1, KPC-2 (Klebsiella pneumoniae, UniProt Q9F663).
T1 construct: made in house
The class given is biochemical. The note with it: 25 °C; for k cat: 10 mM HEPES pH 7.5, 150 mM NaCl, BSA, standard error in parentheses; for K M: pH 7.5, standard error in parentheses. Here is the method:
(§1) Antibiotic hydrolysis was measured at 25 °C in kinetics buffer (10 mM HEPES, pH 7.5 and 150 mM NaCl, 100 μg per mL bovine […] albumin (BSA)). […] Hydrolysis was followed using Greiner half area 96-well plates and a BMG CLARIOstar Plus microplate reader. GraphPad Prism 9.3.1 (GraphPad Software, La Jolla, CA, USA; https://www.graphpad.com) was used to calculate kinetic parameters. Initial rates of antibiotic hydrolysis measured across a range of antibiotic concentrations were used to calculate steady-state parameters according to the Michaelis–Menten equation.

Another test addresses T2, KPC-2^G89D (Klebsiella pneumoniae, UniProt Q9F663, G88D).
T2 construct: made in house; host or cells: E. coli
Description: Steady-state kinetics of β-lactam hydrolysis by KPC-2^G89D. To be noted: for k cat / K M: KPC-2^G89D, 25 °C, standard error in parentheses; for k cat: 10 mM HEPES pH 7.5, 150 mM NaCl, BSA; for K M: pH 7.5. The class given is biochemical. Here is the method:
as §1

On to `CC(C)(O/N=C(\C(=O)N[C@@H]1C(=O)N2C(C(=O)[O-])=C(C[n+]3ccccc3)CS[C@H]12)c1csc(N)n1)C(=O)O` [Ceftazidime], for which the k cat was 1.9 (0.12) s^−1 on KPC-2, 1.9 s⁻¹ on KPC-2 (listed as ceftazidime) and 2.7 (0.36) s^−1 at KPC-2^G89D. Further, the “K M” value at KPC-2 is reported as 533 (69) μM; at KPC-2^G89D, 1340 (220) μM.
As for `CC(=O)OCC1=C(C(=O)O)N2C(=O)[C@@H](NC(=O)Cc3cccs3)[C@H]2SC1` [Cephalothin], at KPC-2, the k cat is listed as 112 (2.78) s^−1 and the “K M” value is listed as 41.6 (3.41) μM. Also, the “decrease in the rate of turnover” value on KPC-2^G89D (KPC-2^G89D compared to wild-type KPC-2) is listed as 10 fold. In addition, at KPC-2^G89D, the k cat is reported as 10.8 (0.32) s^−1 and the “K M” value is 45.1 (3.71) μM.
For `CO/N=C(\C(=O)N[C@@H]1C(=O)N2C(C(=O)O)=C(COC(C)=O)CS[C@H]12)c1csc(N)n1` [Cefotaxime], the k cat on KPC-2 was 75.8 (6.61) s^−1; at KPC-2 (listed as cefotaxime), 76 s⁻¹; at KPC-2^G89D it was 523 (176) s^−1. Also, the “K M” value on KPC-2 is on record as 199 (29) μM; on KPC-2^G89D, 2470 (942) μM.
